Earlier results as cited in patent US20100273808A1 (Millennium Pharmaceticals, Inc., priority 2008, published 2010).

Test system: human Flt-3/ITD-positive AML cancer cells
Conditions: preclinical studies; cited from earlier work

For `COc1cc2c(N3CCN(C(=O)Nc4ccc(OC(C)C)cc4)CC3)ncnc2cc1OCCCN1CCCCC1` [4-[6-methoxy-7-(3-piperidin-1-yl-propoxy)quinazolin-4-yl]piperazine-1-carboxylic acid(4-isopropoxyphenyl)-amide], the “killing of Flt-3/ITD-positive AML cancer cells” value is given as “selectively killed”.
